# Molecular target: D(2) dopamine receptor (Rattus norvegicus, UniProt P61169)
# The chains behind the UniProt entries cited, without tags or fusion partners.
# UniProt P61169, whole entry: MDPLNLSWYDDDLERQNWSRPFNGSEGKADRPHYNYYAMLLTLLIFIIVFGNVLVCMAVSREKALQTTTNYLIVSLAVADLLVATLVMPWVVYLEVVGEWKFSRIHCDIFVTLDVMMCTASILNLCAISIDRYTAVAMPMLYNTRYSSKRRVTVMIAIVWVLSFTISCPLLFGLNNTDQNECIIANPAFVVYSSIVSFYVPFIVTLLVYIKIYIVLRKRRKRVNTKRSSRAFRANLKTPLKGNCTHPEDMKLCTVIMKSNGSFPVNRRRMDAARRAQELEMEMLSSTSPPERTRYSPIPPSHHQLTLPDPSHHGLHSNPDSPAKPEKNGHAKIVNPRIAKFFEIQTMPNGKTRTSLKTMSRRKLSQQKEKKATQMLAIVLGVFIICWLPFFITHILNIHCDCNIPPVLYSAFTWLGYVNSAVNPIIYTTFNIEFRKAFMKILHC
# Assay: Potency to displace the specific in vitro binding of [3H]DP-5,6-ADTN to rat striatal membrane
# Set-up: species or system Striatum
compound,measurement,value
CCCN(CCC)C1CCc2c(O)cccc2C1 (stereo unspecified) [5-OH-DPAT],IC50,4 nM
